{
  "source": "patent US5571822A",
  "about": "“Antitumor compounds” (The University of North Carolina at Chapel Hill, priority 1994, dated 1996)",
  "key": {"[1]": {"system": "approximately 60 different cell lines", "assay": "NCI in vitro disease-oriented human tumor cell screen, all cell lines", "format": "cell-based", "details": "read-out: average logGI50 (converted)", "text": "The cell lines tested included cells derived from the following solid tumor types: leukemia, non-small cell lung, colon, the central nervous system (CNS), melanoma, ovarian, renal, prostate, and breast cancers."}, "NCI-H226": {"system": "NCI-H226", "assay": "NCI in vitro tumor cell screen, NCI-H226 non-small cell lung cancer", "format": "cell-based", "details": "Homo sapiens, NCI-H226, read-out: logGI50 (converted)", "protocol": "Selected 2-phenyl-4-quinolones were assayed using an in vitro, disease-oriented antitumor screen run by the National Cancer Institute (NCI) (e.g., Boyd 1989). The screen involved approximately 60 different cell lines and is a useful indicator of in vivo antitumor activity for a broad variety of tumor types (Grever et al., 1992; Monks et al., 1991). The cell lines tested included cells derived from the following solid tumor types: leukemia, non-small cell lung, colon, the central nervous system (CNS), melanoma, ovarian, renal, prostate, and breast cancers."}},
  "data": [
    {"molecule": "CC(=O)Nc1ccc2[nH]c(-c3cccc(F)c3)cc(=O)c2c1", "note": "[compound 25, 3'-Fluoro-6-acetamido-2-phenyl-4-quinolone]", "values": [
      {"measurement": "GI50", "setting": "[1]", "value": 15.1, "unit": "µM"},
      {"measurement": "GI50", "setting": "NCI-H226", "value": 23.4, "unit": "µM"}
    ]}
  ]
}
